These results are taken from patent US11224601B1, “Compounds that inhibits MCL-1 protein” (priority 2017, dated 2022).

This assay has as its system OPM-2 Luc cells. Description: Tumor Pharmacodynamics (PD) model. The format is in vivo. Conditions: dosed orally to female athymic nude mice inoculated with OPM-2 Luc cells; compared with Reference Compound 1.

Regarding `COCC[C@@H]1[C@@H](C)C/C=C/[C@@](CN2CCN3CCOC[C@@H]3C2)(OC)[C@@H]2CC[C@H]2CN2C[C@@]3(CCCc4cc(Cl)ccc43)COc3ccc(cc32)C(=O)NS1(=O)=O`, the “in vivo efficacy in a tumor PD model relative to Reference Compound 1” value is given as “superior in vivo efficacy”.
